Patent publication US10233209B2, “Inhibitors of the farnesoid x receptor and uses in medicine” (The United States of America, as represented by the …, priority 2013, dated 2019)

Target: T1, FXR (Homo sapiens, UniProt Q96RI1)
T1 sequence (Q96RI1 1-486): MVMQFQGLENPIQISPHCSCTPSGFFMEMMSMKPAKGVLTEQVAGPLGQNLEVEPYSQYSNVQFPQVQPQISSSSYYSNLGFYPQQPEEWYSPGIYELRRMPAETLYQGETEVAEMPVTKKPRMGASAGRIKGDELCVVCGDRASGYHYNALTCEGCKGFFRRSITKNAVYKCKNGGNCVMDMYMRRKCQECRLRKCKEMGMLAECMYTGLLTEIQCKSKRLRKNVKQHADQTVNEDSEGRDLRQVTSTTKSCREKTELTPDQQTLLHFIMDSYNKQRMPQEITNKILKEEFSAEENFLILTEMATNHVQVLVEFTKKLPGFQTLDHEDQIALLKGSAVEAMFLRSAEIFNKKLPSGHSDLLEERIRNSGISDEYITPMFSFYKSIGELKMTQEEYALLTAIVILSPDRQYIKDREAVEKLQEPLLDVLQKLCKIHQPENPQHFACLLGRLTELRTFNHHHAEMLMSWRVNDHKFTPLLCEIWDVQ
Assay: FXR target gene mRNA expression in differentiated Caco-2 cells
Assay type: cell-based
Set-up: host or cells: differentiated Caco-2
Settings: for expression of FXR target gene Fgf19 mRNA / expression of FXR target gene Shp mRNA: GW4064 2 μM and 5 μM; for Atp5g mRNA expression: GW4064 treatment

Structure (SMILES): CC(C)c1onc(-c2c(Cl)cccc2Cl)c1COc1ccc(/C=C/c2cccc(C(=O)O)c2)c(Cl)c1 [GW4064]
- expression of FXR target gene Fgf19 mRNA: induced
- expression of FXR target gene Shp mRNA: induced
- expression of FXR target gene Fgf19 mRNA (listed as Gw4064): induced expression
- expression of FXR target gene Shp mRNA (listed as Gw4064): induced expression
- Atp5g mRNA expression: inhibited expression
- Atp5g mRNA expression (listed as Gw4064): inhibited Atp5g mRNA expression
